US6733779B2, “Method of treating benign prostatic hyperplasia and other benign prostate conditions” (priority 1999, dated 2004)

Test: Side effects observed in the treated patients (informal trials)
Settings: 40 mg daily continued beyond fourteen days; normally subside after the sustaining dosage is instituted

For CC1=C(/C=C/C(C)=C/C=C/C(C)=C\C(=O)O)C(C)(C)CCC1 [Accutane, 13-cis retinoic acid], the “side effects of the initial treatment” value was “tenderness at sites of old injuries to the fibro-musculo-skeletal system, dry skin, chapped lips, dry eyes, and dry nose, tend to occur”.
